Target: NPY4R (Homo sapiens, UniProt P50391)
Test: effect on Y2Receptor family: NPY4R
Assay type: cell-based

Sequences of proteins named here, by UniProt entry; tags and fusion partners are left off.
UniProt P50391, whole entry, species assumed: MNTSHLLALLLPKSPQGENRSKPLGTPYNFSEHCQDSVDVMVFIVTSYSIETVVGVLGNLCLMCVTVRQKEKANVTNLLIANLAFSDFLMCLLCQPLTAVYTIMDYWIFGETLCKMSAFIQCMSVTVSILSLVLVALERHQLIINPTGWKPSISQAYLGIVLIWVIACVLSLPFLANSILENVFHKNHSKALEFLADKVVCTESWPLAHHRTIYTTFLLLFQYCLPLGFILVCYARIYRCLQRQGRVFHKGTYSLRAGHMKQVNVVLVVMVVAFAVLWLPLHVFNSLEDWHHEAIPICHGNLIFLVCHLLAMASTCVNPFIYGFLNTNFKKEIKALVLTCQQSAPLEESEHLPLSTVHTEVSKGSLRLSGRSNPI

NPY4R (listed as PYY(3 -36) charge 1): 162 nM
NPY4R (listed as PYY(3 -36) charge 2): 131 nM
SMILES: CC[C@H](C)[C@H](N)C(=O)N[C@@H](CCCCN)C(=O)N1CCC[C@H]1C(=O)N[C@@H](CCC(=O)O)C(=O)N[C@@H](C)C(=O)N1CCC[C@H]1C(=O)NCC(=O)N[C@@H](CCC(=O)O)C(=O)N[C@@H](CC(=O)O)C(=O)N[C@@H](C)C(=O)N[C@@H](CO)C(=O)N1CCC[C@H]1C(=O)N[C@@H](CCC(=O)O)C(=O)N[C@@H](CCC(=O)O)C(=O)N[C@@H](CC(C)C)C(=O)N[C@@H](CC(N)=O)C(=O)N[C@@H](CCCNC(=N)N)C(=O)N[C@@H](Cc1ccc(O)cc1)C(=O)N[C@@H](Cc1ccc(O)cc1)C(=O)N[C@@H](C)C(=O)N[C@@H](CO)C(=O)N[C@@H](CC(C)C)C(=O)N[C@@H](CCCNC(=N)N)C(=O)N[C@@H](Cc1c[nH]cn1)C(=O)N[C@@H](Cc1ccc(O)cc1)C(=O)N[C@@H](CC(C)C)C(=O)N[C@@H](CC(N)=O)C(=O)N[C@@H](CC(C)C)C(=O)N[C@H](C(=O)N[C@H](C(=O)N[C@@H](CCCNC(=N)N)C(=O)N[C@@H](CCC(N)=O)C(=O)N[C@@H](CCCNC(=N)N)C(=O)N[C@@H](Cc1ccc(O)cc1)C(N)=O)[C@@H](C)O)C(C)C [PYY(3-36)]
